Yeast mating assay 2: variants of the scFv Ab-91

The target is the same throughout: PDVDLGDISGINAS, from the HR2 region of SARS-CoV-2 spike.

Parent: Ab-91, a human scFv built as VL, three GGGGS repeats, VH. Only the CDRs of the heavy chain vary.
VL: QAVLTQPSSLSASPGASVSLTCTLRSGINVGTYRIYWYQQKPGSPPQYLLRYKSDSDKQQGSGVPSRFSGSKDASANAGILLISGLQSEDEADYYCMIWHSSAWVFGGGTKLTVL
VH: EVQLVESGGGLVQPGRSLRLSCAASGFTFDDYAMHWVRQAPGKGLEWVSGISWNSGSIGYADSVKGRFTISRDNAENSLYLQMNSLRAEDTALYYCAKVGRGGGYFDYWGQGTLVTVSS

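Phage display of a naive human antibody library on the peptide gave the parent. AAYL51 was designed without a model: most single CDR substitutions and a random sample of double and triple ones. In AlphaSeq, yeast of one mating type display the scFv and yeast of the other type display the target. Binding brings cells together so that they mate, and sequencing counts the barcode pairs among the diploids. Read counts were normalised to the haploid input and turned into Kd by a linear fit to BCL2-family pairs of known affinity, for each replicate. The assay was run in three technical replicates.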

Changes read parent residue, position, new residue, counted from the first residue of the VH shown.
Every variant below is changed at G50 of the VH (sequential numbering).
Each Kd is an estimate from the mating assay, the geometric mean of the replicates in which the pair was seen; lower is stronger.
Where no diploid with the target was found in any replicate, the entry reads "nd": below detection, most likely a poor binder, though not proof of it.
As a blank, each scFv also met three strains without target: over library AAYL51, 21% of these pairings were detected, typically at 34 µM and seldom below 1.8 µM. For each scFv, signals with the empty controls are counted beside the result.
For reference, the parent read 72 nM as the reference entry and 7.5 nM as a member of this library.

With G50T Y60E Y108H the result was nd (0 of 3 replicates; controls 2 of 9). Variant G50W I51A D107E showed 18 µM (2 of 3 replicates; controls 2 of 9). Variant G50M Y60A A61L showed 190 µM (2 of 3 replicates; controls 4 of 9). For D30E H35K G50D, the assay gave nd (0 of 3 replicates; controls 2 of 9). Variant G50K K65E V99H showed nd (0 of 3 replicates; controls 0 of 9). Variant G50Y I51G G103R showed 110 µM (3 of 3 replicates; controls 4 of 9). Variant T28D G50P S52P gave 250 µM (2 of 3 replicates; controls 4 of 9). Variant D30H G50P S52R gave 150 µM (1 of 3 replicates; controls 2 of 9). For G50Y W53G G59T, the assay gave nd (0 of 3 replicates; controls 1 of 9).

For G50C S63K Y105E, the assay gave nd (0 of 3 replicates; controls 2 of 9). Variant F27D G50S Y105K gave nd (0 of 3 replicates; controls 2 of 9). Variant G50E G59C G103I gave nd (0 of 3 replicates; controls 1 of 9). With G50F I58G G104I the result was 49 µM (1 of 3 replicates; controls 6 of 9). With G50T G56R S57P the result was 50 µM (2 of 3 replicates; controls 3 of 9). Variant H35D G50D G102S showed nd (0 of 3 replicates; controls 0 of 9). For G50D S52I R101L, the assay gave nd (0 of 3 replicates; controls 1 of 9). Variant G50A V64P F106N showed 35 µM (1 of 3 replicates; controls 3 of 9). Variant D31I G50R G100H showed nd (0 of 3 replicates; controls 0 of 9).

With A33F G50H S52A the result was 120 µM (2 of 3 replicates; controls 1 of 9). For G50P G100H G104V, the assay gave nd (0 of 3 replicates; controls 2 of 9). Variant F27N G50W gave 540 µM (1 of 3 replicates; controls 0 of 9). With G50N N54Q S57Y the result was 66 µM (2 of 3 replicates; controls 2 of 9). With G26E G50L V99Y the result was nd (0 of 3 replicates; controls 0 of 9). With T28I G50C R101W the result was 510 µM (1 of 3 replicates; controls 2 of 9). For G50A R101E G102N, the assay gave 7.4 µM (2 of 3 replicates; controls 0 of 9). Variant G50L S63P K65I gave 160 µM (3 of 3 replicates; controls 6 of 9). Variant D31M M34W G50E gave nd (0 of 3 replicates; controls 0 of 9).

With F29D G50K F106W the result was nd (0 of 3 replicates; controls 0 of 9). Variant G50E G56Q G102L gave nd (0 of 3 replicates; controls 0 of 9). Variant Y32G G50V gave nd (0 of 3 replicates; controls 1 of 9). For G26S G50D S55N, the assay gave 15 µM (3 of 3 replicates; controls 2 of 9). With D31T A33M G50W the result was nd (0 of 3 replicates; controls 0 of 9). Variant G26L A33R G50D showed 220 µM (1 of 3 replicates; controls 2 of 9). For H35I G50S W53E, the assay gave 58 µM (3 of 3 replicates; controls 6 of 9). Variant D31T G50S V99P gave nd (0 of 3 replicates; controls 0 of 9). Variant M34Q G50I D107N gave 24 µM (1 of 3 replicates; controls 1 of 9).

Variant G50D gave 24 µM (2 of 3 replicates; controls 1 of 9).

Extract of 5 entries:

changes	Kd (apparent)	detected	signal with controls
Y32G G50V	nd	0/3	1/9
G50D	24 µM	2/3	1/9
F27D G50S Y105K	nd	0/3	2/9
G50C S63K Y105E	nd	0/3	2/9
G50M Y60A A61L	190 µM	2/3	4/9

From the AlphaSeq antibody data of Engelhart et al. 2022 (doi:10.1038/s41597-022-01779-4), copy in the FLAb collection.